Test results from patent US20060121042A1 (AstraZeneca / MedImmune, published 2006).

Amino acid sequences for entries named in this document (tags omitted). Residues count along the entry.
UniProt P29317, 25-534 limits assumed: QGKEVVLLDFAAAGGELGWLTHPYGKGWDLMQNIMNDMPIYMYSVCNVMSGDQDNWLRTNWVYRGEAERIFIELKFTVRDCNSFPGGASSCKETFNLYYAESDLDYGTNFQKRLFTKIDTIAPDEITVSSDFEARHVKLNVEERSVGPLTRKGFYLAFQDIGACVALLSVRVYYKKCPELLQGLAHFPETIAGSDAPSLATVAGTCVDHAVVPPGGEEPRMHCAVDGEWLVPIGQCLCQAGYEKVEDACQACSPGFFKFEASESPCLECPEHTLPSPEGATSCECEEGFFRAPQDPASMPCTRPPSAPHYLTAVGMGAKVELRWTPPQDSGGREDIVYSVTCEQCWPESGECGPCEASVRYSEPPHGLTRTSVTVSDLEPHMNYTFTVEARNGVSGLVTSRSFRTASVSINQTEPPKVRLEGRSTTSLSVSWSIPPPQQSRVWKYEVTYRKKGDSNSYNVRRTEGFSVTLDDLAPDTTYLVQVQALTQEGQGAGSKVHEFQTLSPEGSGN
UniProt Q03145, 26-535 limits assumed: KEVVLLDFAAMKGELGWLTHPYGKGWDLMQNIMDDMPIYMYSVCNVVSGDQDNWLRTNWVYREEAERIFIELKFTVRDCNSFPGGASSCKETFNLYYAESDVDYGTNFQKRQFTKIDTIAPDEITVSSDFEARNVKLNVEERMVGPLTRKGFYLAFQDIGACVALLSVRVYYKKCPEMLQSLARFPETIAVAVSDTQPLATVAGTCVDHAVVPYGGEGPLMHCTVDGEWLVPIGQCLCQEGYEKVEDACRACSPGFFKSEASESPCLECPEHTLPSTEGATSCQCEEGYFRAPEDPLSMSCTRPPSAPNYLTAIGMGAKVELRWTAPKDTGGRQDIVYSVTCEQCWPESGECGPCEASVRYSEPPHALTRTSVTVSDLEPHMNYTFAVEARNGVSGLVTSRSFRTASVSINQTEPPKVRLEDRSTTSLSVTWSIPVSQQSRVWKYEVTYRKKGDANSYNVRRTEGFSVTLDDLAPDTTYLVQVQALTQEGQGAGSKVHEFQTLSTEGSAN

Assays:
hEphA2 = target: T1, hEphA2 (human, UniProt P29317); assay: ELISA
T1 construct: also called human EphA2

mEph A2 = mEph A2 (mouse, UniProt Q03145); assay: ELISA
Note: test concentration or dose not given here.

B1: 1C1 (antibody, V domains shown)
VH: EVQLLESGGGLVQPGGSLRLSCAASGFTFSHYMMAWVRQAPGKGLEWVSRIGPSGGPTHYADSVKGRFTISRDNSKNTLYLQMNSLRAEDTAVYYCAGYDSGYDYVAVAGPAEYFQHWGQGTLVTVSS
VL: DIQMTQSPSSLSASVGDRVTITCRASQSISTWLAWYQQKPGKAPKLLIYKASNLHTGVPSRFSGSGSGTEFSLTISGLQPDDFATYYCQQYNSYSRTFGQGTKVEIK
ELISA O.D. value (hEphA2): 0.146 | ELISA O.D. value (mEph A2): 0.045
